pIC50: −log10 of the molar value.
target: purified recombinant human sAC protein (Homo sapiens, UniProt Q96PN6); test: biochemical; assay type: biochemical; conditions: 1 mM ATP, 2 mM CaCl2, 4 mM MgCl2, 40 mM NaHCO3
Procedure: Assays for sAC activity using purified protein were performed in 100 μl reactions containing 4 mM MgCl2, 2 mM CaCl2, 1 mM ATP, 40 mM NaHCO3, 50 mM Tris pH 7.5, and 3 mM DTT. Each reaction contained ˜1,000,000 counts of α-^32P labeled ATP.
All in vitro adenylyl cyclase activity assays were performed via the “two-column” method measuring the conversion of [α-^32P] ATP into [^32P] cAMP, as previously described [References 81, 82]. Briefly, human sACt protein [Reference 21] was incubated in buffer containing 50 mM Tris-HCl, pH 7.5, 4 mM MgCl2, 2 mM CaCl2, 1 mM ATP, 3 mM DTT, 40 mM NaHCO3 in the presence of the indicated concentrations of different sAC inhibitors or vehicle (DMSO).

Chains of the proteins cited; added tags and fusions are not shown. Lines headed by an entry give the natural chain unless they say otherwise; changes in a name come on top.
UniProt Q96PN6: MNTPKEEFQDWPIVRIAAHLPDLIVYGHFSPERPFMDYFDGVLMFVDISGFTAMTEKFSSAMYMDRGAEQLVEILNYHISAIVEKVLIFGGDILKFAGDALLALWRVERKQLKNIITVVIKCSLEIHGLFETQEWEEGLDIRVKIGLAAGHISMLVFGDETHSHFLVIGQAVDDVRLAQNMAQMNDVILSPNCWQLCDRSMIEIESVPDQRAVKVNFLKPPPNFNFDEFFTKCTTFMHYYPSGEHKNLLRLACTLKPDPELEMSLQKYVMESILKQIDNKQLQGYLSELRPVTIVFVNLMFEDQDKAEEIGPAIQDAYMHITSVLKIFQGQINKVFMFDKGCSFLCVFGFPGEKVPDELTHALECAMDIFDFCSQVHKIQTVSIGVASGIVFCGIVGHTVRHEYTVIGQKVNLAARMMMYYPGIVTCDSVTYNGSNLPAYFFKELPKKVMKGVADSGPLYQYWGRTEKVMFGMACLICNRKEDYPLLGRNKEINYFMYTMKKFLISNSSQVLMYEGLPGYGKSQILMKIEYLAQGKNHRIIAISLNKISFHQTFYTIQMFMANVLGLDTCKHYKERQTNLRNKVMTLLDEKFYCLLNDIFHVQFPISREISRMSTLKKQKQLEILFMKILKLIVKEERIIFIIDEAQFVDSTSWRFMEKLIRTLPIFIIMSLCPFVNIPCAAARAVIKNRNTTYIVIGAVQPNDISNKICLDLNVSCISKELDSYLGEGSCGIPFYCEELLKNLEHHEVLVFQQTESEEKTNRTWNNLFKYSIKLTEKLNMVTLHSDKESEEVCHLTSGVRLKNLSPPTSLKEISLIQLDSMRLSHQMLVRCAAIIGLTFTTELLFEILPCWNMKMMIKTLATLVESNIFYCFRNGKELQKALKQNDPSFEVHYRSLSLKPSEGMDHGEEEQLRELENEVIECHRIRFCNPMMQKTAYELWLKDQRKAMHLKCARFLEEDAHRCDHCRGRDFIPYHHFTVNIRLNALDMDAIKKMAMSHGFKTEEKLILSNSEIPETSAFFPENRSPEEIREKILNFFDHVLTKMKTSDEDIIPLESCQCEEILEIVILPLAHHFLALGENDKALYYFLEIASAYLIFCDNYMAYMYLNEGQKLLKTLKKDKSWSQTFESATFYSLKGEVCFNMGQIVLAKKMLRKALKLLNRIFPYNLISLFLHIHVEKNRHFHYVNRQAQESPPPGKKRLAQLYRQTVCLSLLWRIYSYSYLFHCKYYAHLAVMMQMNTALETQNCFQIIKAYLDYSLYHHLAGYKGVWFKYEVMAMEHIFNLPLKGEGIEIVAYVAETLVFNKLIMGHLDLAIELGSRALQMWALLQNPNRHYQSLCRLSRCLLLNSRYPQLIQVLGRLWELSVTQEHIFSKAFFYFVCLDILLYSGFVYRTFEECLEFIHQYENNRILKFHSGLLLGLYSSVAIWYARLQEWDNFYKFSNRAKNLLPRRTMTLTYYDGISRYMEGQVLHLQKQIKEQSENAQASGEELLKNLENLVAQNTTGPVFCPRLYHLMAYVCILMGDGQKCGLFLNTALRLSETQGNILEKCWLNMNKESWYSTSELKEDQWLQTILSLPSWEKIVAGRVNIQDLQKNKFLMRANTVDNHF

SMILES	pIC50
COC(=O)Nc1nc(Cl)cc(-c2nn(C)c(C)c2Cc2ccccc2)n1 [Example 90, methyl N-[4-(4-benzyl-1,5-dimethyl-pyrazol-3-yl)-6-chloro-pyrimidin-2-yl]carbamate]	~6.00
CN1CCN(CCOc2ccccc2Cc2cn(C(F)F)nc2-c2cc(Cl)nc(N)n2)CC1 [Example 91]	7.74
Cn1cc(Cc2ccccc2OCCN2CC3(COC3)C2)c(-c2cc(Cl)nc(N)n2)n1 [Example 92]	8.15
Cn1cc(Cc2ccccc2OCCN2C[C@@H]3C[C@H]2CO3)c(-c2cc(Cl)nc(N)n2)n1 [Example 93]	8.00
Nc1nc(Cl)cc(-c2nn(C(F)F)cc2Cc2nc(C(=O)NCc3ccccc3)cs2)n1 [Example 94, 2-[[3-(2-amino-6-chloro-pyrimidin-4-yl)-1-(difluoromethyl)pyrazol-4-yl]methyl]-N-benzyl-thiazole-4-carboxamide]	6.60
COC(=O)C1CCN(CCOc2ccccc2Cc2cn(C)nc2-c2cc(Cl)nc(N)n2)CC1 [Example 96]	8.30
Cn1cc(Cc2ccccc2OCCN2CCC(C(=O)O)CC2)c(-c2cc(Cl)nc(N)n2)n1 [Example 97]	6.60
CN1CCC(Oc2ccccc2Cc2cn(C(F)F)nc2-c2cc(Cl)nc(N)n2)CC1 [Example 98]	7.70
Cn1cc(Cc2ccccc2OCCN2CCOCC2)c(-c2cc(C#N)nc(N)n2)n1 [Example 99, 2-amino-6-[1-methyl-4-[[2-(2-morpholinoethoxy)phenyl]methyl]pyrazol-3-yl]pyrimidine-4-carbonitrile]	7.00
CN1CCN(CCOCc2ccccc2Cc2cn(C(F)F)nc2-c2cc(Cl)nc(N)n2)CC1 [Example 100]	6.82
Cn1cc(Cc2cccnc2OCCN2CCOCC2)c(-c2cc(Cl)nc(N)n2)n1 [Example 101]	6.82
Cn1cc(Cc2ccccc2OCCN2CCOCC2)c(-c2nc(N)nc(Cl)c2F)n1 [Example 102]	6.92
COC(=O)c1ccc(C2CC2)c(Cc2cn(C(F)F)nc2-c2cc(Cl)nc(N)n2)c1 [Example 103, methyl 3-[[3-(2-amino-6-chloro-pyrimidin-4-yl)-1-(difluoromethyl)pyrazol-4-yl]methyl]-4-cyclopropyl-benzoate]	8.70
Nc1nc(Cl)cc(-c2nn(C(F)F)cc2Cc2cc(C(=O)O)ccc2C2CC2)n1 [Example 104, 3-[[3-(2-amino-6-chloro-pyrimidin-4-yl)-1-(difluoromethyl)pyrazol-4-yl]methyl]-4-cyclopropyl-benzoic acid]	8.00
Nc1nc(Cl)cc(-c2nn(C(F)F)cc2Cc2cc(C(=O)NCc3ccccc3)ccc2C2CC2)n1 [Example 105, 3-[[3-(2-amino-6-chloro-pyrimidin-4-yl)-1-(difluoromethyl)pyrazol-4-yl]methyl]-N-benzyl-4-cyclopropyl-benzamide]	8.70
Cn1cc(Cc2ccccc2SCCN2CCOCC2)c(-c2cc(Cl)nc(N)n2)n1 [Example 106]	7.22
Nc1nc(Cl)cc(-c2nn(C(F)F)cc2Cc2ccccc2OCCN2CCOCC2=O)n1 [Example 108]	8.30
CN1CCN(CC(C)(O)COc2ccccc2Cc2cn(C(F)F)nc2-c2cc(Cl)nc(N)n2)CC1 (stereo not drawn) [Example 109]	8.00
CC(=O)N(Cc1cn(C)nc1-c1cc(Cl)nc(N)n1)C1CCC1 [Example 110]	6.39
Cn1cc(S(=O)(=O)c2ccccc2)c(-c2cc(Cl)nc(N)n2)n1 [Example 111]	5.48
CN(C)CCCOC(=O)c1ccccc1Cc1cn(C(F)F)nc1-c1cc(Cl)nc(N)n1 [Example 112]	7.13
Nc1nc(Cl)cc(-c2nn(C(F)F)cc2CN2CCCc3ccccc32)n1 [Example 113]	6.85
Cc1c(Cn2cccn2)c(-c2cc(Cl)nc(N)n2)nn1C(F)F [Example 147]	6.23

More lines, now with the values ahead:

pIC50	SMILES
5.60	Cc1nc(-c2cc(Cl)nc(N)n2)n(Cc2ccccc2)n1 [Example 114]
~6.00	Cc1cn(Cc2ccccc2)c(-c2cc(Cl)nc(N)n2)n1 [Example 115]
5.85	Cc1nc(Cc2ccccc2)n(-c2cc(Cl)nc(N)n2)n1 [Example 116]
6.47	Cn1cc(Cc2cccc(OCCN3CCOCC3)c2)c(-c2cc(Cl)nc(N)n2)n1 [Example 117]
6.80	Nc1nc(Cl)cc(-n2nc(C(F)F)nc2Cc2ccccc2OCC(=O)N2CCOCC2)n1 [Example 118, 2-[2-[[2-(2-amino-6-chloro-pyrimidin-4-yl)-5-(difluoromethyl)-1,2,4-triazol-3-yl]methyl]phenoxy]-1-morpholino-ethanone]
7.92	Cn1cc(Cc2ccccc2OCCN2CCNC(=O)C2)c(-c2cc(Cl)nc(N)n2)n1 [Example 119]
~6.00	Cc1cc(-c2nn(C)cc2Cc2ccccc2OCCN2CCOCC2)nc(N)n1 [Example 121, 4-methyl-6-[1-methyl-4-[[2-(2-morpholinoethoxy)phenyl]methyl]pyrazol-3-yl]pyrimidin-2-amine]
8.30	Nc1nc(Cl)cc(-c2nn(C(F)F)cc2Cc2ccccc2OCCN2CC3(COC3)C2)n1 [Example 122]
8.70	Nc1nc(Cl)cc(-c2nn(C(F)F)cc2Cc2ccccc2OCCN2C[C@H]3C[C@@H]2CO3)n1 [Example 124]
8.52	CN1CCC(O)(CCOc2ccccc2Cc2cn(C(F)F)nc2-c2cc(Cl)nc(N)n2)CC1 [Example 125]
8.40	Cn1cc(Cc2c(Cl)cccc2OCCN2CCNC(=O)C2)c(-c2cc(Cl)nc(N)n2)n1 [Example 126]
8.00	COC(=O)COc1ccccc1Cc1cn(C)nc1-c1cc(Cl)nc(N)n1 [Example 127, methyl 2-[2-[[3-(2-amino-6-chloro-pyrimidin-4-yl)-1-methyl-pyrazol-4-yl]methyl]phenoxy]acetate]
7.82	COCCOCCOCCOc1ccccc1Cc1cn(C)nc1-c1cc(Cl)nc(N)n1 [Example 128]
6.52	CN(C)CCOCc1c(Cc2ccccc2)c(-c2cc(Cl)nc(N)n2)nn1C [Example 129]
7.82	Cn1cc(Cc2ccccc2OCC(=O)N2CCC(CO)CC2)c(-c2cc(Cl)nc(N)n2)n1 [Example 134]
7.40	Cn1cc(Cc2ccccc2OCC(=O)OCCN2CCOCC2)c(-c2cc(Cl)nc(N)n2)n1 [Example 142]
7.40	Nc1nc(Cl)cc(-c2nn(C(F)F)cc2Cc2cc(C(=O)NCCN3CCOCC3)ccc2C2CC2)n1 [Example 143]
6.28	COc1ccccc1Cc1c(-c2cc(Cl)nc(N)n2)nn(C)c1C [Example 146]
6.42	Cn1cc(Cn2cccn2)c(-c2cc(Cl)nc(N)n2)n1 [Example 148, 4-chloro-6-[1-methyl-4-(pyrazol-1-ylmethyl)pyrazol-3-yl]pyrimidin-2-amine]
6.60	Cc1cccc(C)c1Cc1cn(C(F)F)nc1-c1cc(Cl)nc(N)n1 [Example 149]
6.26	Nc1nc(Cl)cc(-c2nn(C(F)F)cc2Cc2ccccc2OC2CC2)n1 [Example 150]
7.52	Cn1cc(Cc2ccccc2OCCN2C[C@H](O)[C@@H](O)C2)c(-c2cc(Cl)nc(N)n2)n1 [Example 151]
7.49	Cn1cc(Cc2ccccc2OCCN2C[C@@H](O)[C@@H](O)C2)c(-c2cc(Cl)nc(N)n2)n1 [Example 152]
6.52	Nc1nc(Cl)cc(-c2nn(C(F)F)cc2Cc2cc(C(=O)NCc3ccccc3)ccc2OC2CCC2)n1 [Example 153]
7.30	Cn1cc(Cc2ccccc2OCC(O)CO)c(-c2cc(Cl)nc(N)n2)n1 (stereo not drawn) [Example 154]

— patent US20240239774A1, “SOLUBLE ADENYLYL CYCLASE (SAC) INHIBITORS AND USES THEREOF” (Cornell University, priority 2021, published 2024)
